Laboratory results reported in PubChem BioAssay AID1224817 (Yan Lab, Georgia Cancer Center, Augusta University, 2016).
The list shows a part of the results, in another mix than the full data. The source made the active and inactive calls.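 Rule for the calls: active = log2 luciferase ratio at or below -0.5849, meaning signal at two thirds of solvent-only control or lower; inactive = the rest.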

experiment: inhibitors of EIF4E gene expression, primary screen, cell-based, HT1080, luciferase reporter (AID 1224817); details: HT1080 EIF4E-luc2 knock-in reporter, 16 h, at 2.5 µM, stronger effect = lower value;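 note: luciferase reports endogenous eIF4E expression since it is co-expressed from the native EIF4E locus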

For `NC1CCCCC1.NP(=O)(O)N(CCCl)CCCl`, which log2 luciferase activity ratio is on record?
Its log2 luciferase activity ratio is inactive: -0.0196.
